# Curated experimental data: logP (octanol/water) values

From the experimental data distributed with OPERA 2.9.

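These are experimental values that the OPERA curators gathered from public databases to train and test their QSAR models. The files give a single number for a compound and property, which may rest on several reports. Conditions of the individual experiments are not part of the data. Where a salt, mixture or single isomer is drawn, the source does not say that exactly this form was tested. Some upstream entries may be estimates or bounds without being marked so.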

The octanol-water partition coefficient is given as log10; larger values mean a more lipophilic compound.
"n/a" marks a cell with nothing listed here.

SMILES	name	logP
CCCCC(=O)OCC(=O)[C@]1(O)Cc2c(O)c3c(c(O)c2[C@@H](O[C@H]2C[C@H](NC(=O)C(F)(F)F)[C@H](O)[C@H](C)O2)C1)C(=O)c1c(OC)cccc1C3=O	Valrubicin	2.2
COc1ccc(C(Cl)=C(c2ccc(OC)cc2)c2ccc(OC)cc2)cc1	Chlorotrianisene	6.4
CCCCCCCCCCCC1=NCCN1CCO	1H-Imidazole-1-ethanol, 4,5-dihydro-2-undecyl-	1.85
CCC(=O)OC1CCC(C(C)C)CC1 (configuration not stated)	4-(Isopropyl)cyclohexyl propionate	5.1
CCCCCCCCCCCC[n+]1ccccc1.[Br-]	Pyridinium, 1-dodecyl-, bromide (1:1)	0.44
O=S1(=O)CCCO1	1,3-Propane sultone	-0.28
CC(O)CN(CCCN(C)C)CC(C)O (configuration not stated)	2-Propanol, 1,1'-[[3-(dimethylamino)propyl]imino]bis-	1.24
CC[C@]12CC[C@@H]3C4=C(CC[C@H]3[C@@H]1CC[C@@H]2O)CC(OC)=CC4	(17Beta)-13-Ethyl-3-methoxygona-2,5(10)-dien-17-ol	5.705
CC1c2nc3ccccc3c(=O)n2CN1c1ccccc1 (configuration not stated)	3-Methyl-2-phenyl-1,3-dihydroimidazo[5,1-b]quinazolin-9-one	1.79
Cc1cc(C)cc(N2C(=O)c3ccc4c5ccc6c7c(ccc(c8ccc(c3c48)C2=O)c75)C(=O)N(c2cc(C)cc(C)c2)C6=O)c1	C.I. Pigment Red 149	0.415
CCOCCOCCOC(=O)C1CCC(C(=O)OCCOCCOCC)CC1 (configuration not stated)	Bis-ethoxydiglycol cyclohexane 1,4-dicarboxylate	2.5
CCN(CC)CCc1nc(-c2ccccc2)no1	Oxolamine	2.393
O=C(O)C1(C(=O)Nc2ccc(Cl)cc2Cl)CC1	Cyclanilide	3.25
O=C(ON=C1C=CC(=NOC(=O)c2ccccc2)C=C1)c1ccccc1	2,5-Cyclohexadiene-1,4-dione, 1,4-bis(O-benzoyloxime)	4.43
Oc1cccc(O)c1O	Pyrogallol	0.985
C=Cc1ccccc1Cl	2-Chlorostyrene	3.58
COS(=O)(=O)[O-].COc1ccc(N(C)/N=C/C2=[N+](C)c3ccccc3C2(C)C)cc1	C.I. Basic Yellow 28	-1.1
NC(=S)NN=Cc1ccc(O)cn1	2-[(5-Hydroxy-2-pyridinyl)methylene]hydrazinecarbothioamide	1.04
COC(=O)CC(OC)c1ccc(OC)cc1 (configuration not stated)	Methyl beta,4-dimethoxybenzenepropanoate	1.89
CCN(CC)c1ccc(N=Nc2c(C#N)cc([N+](=O)[O-])cc2[N+](=O)[O-])c(NC(C)=O)c1	n/a	3.11
O=S(=O)([O-])c1cccc(/N=N/c2ccc(Nc3ccccc3)cc2)c1.[Na+]	C.I. Acid Yellow 36, monosodium salt	0.137
CC(C)[C@@H](C(=O)O)N1CCCNC1=O	n/a	0.17
CC(=O)Nc1ccc2cc(S(=O)(=O)[O-])c(/N=N/c3ccc(S(=O)(=O)CCOS(=O)(=O)[O-])cc3)c(O)c2c1.[Na+].[Na+]	n/a	0.002
CN(C)CCOC(=O)c1ccccc1/N=N/c1ccc(O)c(/N=N/c2ccccc2C(=O)OCCN(C)C)c1O.CS(=O)(=O)O.CS(=O)(=O)O	n/a	-1.2
NCCN1CCNCC1	1-(2-Aminoethyl)piperazine	-1.48
CCC(CC(C)CC)=NO (configuration not stated)	N-(5-Methyl-3-heptanylidene)hydroxylamine	2.3
CO[Si](CC(C)C)(OC)C(C)C	Silane, dimethoxy(1-methylethyl)(2-methylpropyl)-	5.1
CS(=O)(=O)c1ccc(C=O)c(C(F)(F)F)c1	n/a	1.7
CCCCCC(C)CO (configuration not stated)	2-Methylheptan-1-ol	3.05
COc1ccccc1N1CCN(CCNC(C)=O)CC1	N-{2-[4-(2-Methoxyphenyl)piperazin-1-yl]ethyl}acetamide	0.5
c1ccc(N(CC2CO2)CC2CO2)cc1 (configuration not stated)	2-Oxiranemethanamine, N-(2-oxiranylmethyl)-N-phenyl-	1.96
C=CC(=O)NCCC[Si](O[Si](C)(C)C)(O[Si](C)(C)C)O[Si](C)(C)C	N-[3-[Tris(trimethylsiloxy)silyl]propyl]acrylamide	5.5
CC(=O)[C-](/N=N/c1cc(S(N)(=O)=O)ccc1[O-])C(=O)Nc1ccccc1.CC(=O)[C-](/N=N/c1cc(S(N)(=O)=O)ccc1[O-])C(=O)Nc1ccccc1.[Co+3].[Na+]	n/a	0.411
CCCCCCCCCCCC(=O)N(C)CC(=O)OC(C)C	Isopropyl lauroyl sarcosinate	5.8
NCCc1cc[nH]n1	Betazole	0.1
C1=CCCC1	Cyclopentene	2.47
C=C(C)C(=O)Oc1ccc(C(=O)c2ccccc2)cc1	4-Benzoylphenyl methacrylate	3.6

Extract of 5 entries:

{"smiles": "CC(=O)[C-](/N=N/c1cc(S(N)(=O)=O)ccc1[O-])C(=O)Nc1ccccc1.CC(=O)[C-](/N=N/c1cc(S(N)(=O)=O)ccc1[O-])C(=O)Nc1ccccc1.[Co+3].[Na+]", "logP": "0.411"}
{"smiles": "CC1c2nc3ccccc3c(=O)n2CN1c1ccccc1", "stereo": "configuration not stated", "name": "3-Methyl-2-phenyl-1,3-dihydroimidazo[5,1-b]quinazolin-9-one", "logP": "1.79"}
{"smiles": "COS(=O)(=O)[O-].COc1ccc(N(C)/N=C/C2=[N+](C)c3ccccc3C2(C)C)cc1", "name": "C.I. Basic Yellow 28", "logP": "-1.1"}
{"smiles": "CC[C@]12CC[C@@H]3C4=C(CC[C@H]3[C@@H]1CC[C@@H]2O)CC(OC)=CC4", "name": "(17Beta)-13-Ethyl-3-methoxygona-2,5(10)-dien-17-ol", "logP": "5.705"}
{"smiles": "O=S1(=O)CCCO1", "name": "1,3-Propane sultone", "logP": "-0.28"}